The record followed here is patent US9326994B2, “Amine functional polyamides” (GENZYME CORPORATION, priority 2013, dated 2016).

The data set has as its system renal proximal tubule epithelial cells (RPTEC). It is filed as cell-based. As to the method: Cells were plated at 3,000 cells/well (RPTEC) or 5,000 cells/well (NHDF) in 96-well plates and incubated overnight at 37° C. The compounds were added to the wells, and the cells were incubated for 4 days. Alomar Blue was added to one set of plates and incubated for 4 hours. The plates were read when the compound was added (time zero) and at the end of the study. Fluorescence was read using 530 nm (excitation) and 590 nm (emission) according to the manufacturer's instructions.
Take “Guanidine terminated poly(4,4-trimethylene dipiperidinebispropanoic acid-diaminopropane)”: the “Cytotoxicity (Kidney Epithelial IC50)” value is on record as 1.

In the case of “Poly(4,4′-trimethylenedipiperidine bisethylacrylamide-co-1-amino-3-guanidine propane)”, the “Cytotoxicity (Kidney Epithelial IC50)” value worked out at 22.

In the case of “Poly(4,4-trimethylene dipiperidinebispropanoic acid-diaminopropane) (guanidine ended)”, the “Cytotoxicity (Kidney Epithelial IC50)” value came out at 2.
